Measured values: publication PMC3589550 (Nature structural & molecular biology, 2011)

Protein sequences, listed by entry. Tags and fused reporters are not part of them. Residues count along the entry.
UniProt Q93009, 62-205: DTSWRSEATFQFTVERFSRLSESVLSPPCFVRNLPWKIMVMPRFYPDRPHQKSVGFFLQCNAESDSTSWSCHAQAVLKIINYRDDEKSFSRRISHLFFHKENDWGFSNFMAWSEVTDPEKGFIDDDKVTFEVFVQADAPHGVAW

Target: HAUSP^62–205 (HAUSP TRAF domain) (UniProt Q93009 62-205)
Assay: ITC

Binder | Kd [µM]
SVWIPVNEGASTSGM [vIRF4^202–216 peptide (vif1)] | 0.39
EGASTSGM [vIRF4^209–216 peptide] | 9.57
